The values that follow are results of earlier work, collected in PMC5881571 (Alzheimer's & dementia : the journal of the Alzheimer's …, 2017).

For this data set, the target named is soluble Aβ40.

Broadly, the Kd is the equilibrium constant for the complex coming apart. Consider “bapineuzumab: a humanized monoclonal Aβ antibody”, for which the Kd is 89 nM.
